Results reported in patent US9522192B2 (EPITECH GROUP S.r.l., priority 2012, dated 2016).

Assay: Water solubility

Substance: N-[2-PEG400-0-carbonyl-oxy-ethyl]-octadecanamide [Example 6]
- Water solubility: > 10000 µg/mL
